Laboratory results as given in US6573253B2, “Methods for the administration of amifostine and related compounds” (MedImmune Oncology Inc., priority 1997, dated 2003).

Assay: Phase I three-way crossover study: safety assessments / adverse events (NCI Common Toxicity Criteria)
Conditions: 5 minutes after completion of intravenous infusion; pre-infusion 115/58 mm Hg

NCCCNCCSP(=O)(O)O [Amifostine, S-2-(3-aminopropylamino)ethyl dihydrogen phosphorothioate]
blood pressure, Subject 1003 (hypotension episode): 99/56
